## Binding of CDR-mutated scFvs to a peptide of the spike HR2 region

Antigen: PDVDLGDISGINAS, a 14-residue peptide of the SARS-CoV-2 spike HR2 region.

Ab-91 is the parent antibody, in scFv form: VL, then a 15-residue (Gly4Ser)3 linker, then VH. The light chain is unchanged in all variants.
VL: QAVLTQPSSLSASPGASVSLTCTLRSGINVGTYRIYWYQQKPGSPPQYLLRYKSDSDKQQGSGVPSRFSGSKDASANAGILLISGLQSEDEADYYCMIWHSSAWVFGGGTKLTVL
VH: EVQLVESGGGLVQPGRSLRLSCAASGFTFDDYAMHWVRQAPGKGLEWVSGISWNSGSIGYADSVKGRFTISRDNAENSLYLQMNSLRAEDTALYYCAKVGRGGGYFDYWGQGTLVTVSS

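The starting antibody came from a phage panning campaign against this peptide. Variants in AAYL51 differ from the parent at up to three CDR positions; double and triple changes were sampled at random. In AlphaSeq, yeast of one mating type display the scFv and yeast of the other type display the target. The frequency of each diploid, read from paired DNA barcodes, reflects how well the two displayed proteins bind. Each replicate has its own calibration line, from reference interactions of the BCL2 family. There are three technical replicates.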

Each variant's VH is given in full.
Every variant below is changed at F29 of the VH (sequential numbering).
Kd is apparent (estimated from mating counts) and averaged on the log scale over replicates with a signal. Smaller is tighter.
"nd" means that the variant was in the library but no mating with the target was seen in any replicate; the authors take this as a sign of poor binding, and no number exists.
The list is sorted by this average, lowest first, undetected variants last.

The variant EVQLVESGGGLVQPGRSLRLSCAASGFTYDDTAMHWVRQAPGKGLEWVSGISWNSGSIGYADSVKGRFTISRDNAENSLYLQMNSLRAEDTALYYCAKVGRGGGYFDYWGQGTLVTVSS gave 3.8 µM (3 of 3 replicates). The variant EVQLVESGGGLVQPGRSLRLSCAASGFTMDDNAMHWVRQAPGKGLEWVSGISWNSGSIGYADSVKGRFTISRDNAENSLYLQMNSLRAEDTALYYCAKVTRGGGYFDYWGQGTLVTVSS showed 6.3 µM (3 of 3 replicates). The variant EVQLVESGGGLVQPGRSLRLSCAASGFTWDDYAMHWVRQAPGKGLEWVSGISWNSGSIGYADSVKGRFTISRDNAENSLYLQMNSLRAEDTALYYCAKVGRGGGKFDYWGQGTLVTVSS gave 8.6 µM (3 of 3 replicates). The variant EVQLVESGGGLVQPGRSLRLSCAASGFTNDDYAMHWVRQAPGKGLEWVSGISWNSGNIGYADSVQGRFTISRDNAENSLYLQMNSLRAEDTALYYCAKVGRGGGYFDYWGQGTLVTVSS showed 11 µM (1 of 3 replicates). The variant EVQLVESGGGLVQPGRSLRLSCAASGFWGDDYAMHWVRQAPGKGLEWVSGISNNSGSIGYADSVKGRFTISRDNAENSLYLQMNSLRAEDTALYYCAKVGRGGGYFDYWGQGTLVTVSS gave 16 µM (2 of 3 replicates). For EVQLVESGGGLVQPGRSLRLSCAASGFTADDYAMHWVRQAPGKGLEWVSGISWNSGSIGYADSVKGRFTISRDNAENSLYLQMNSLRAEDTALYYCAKVGWGGGYKDYWGQGTLVTVSS, the assay gave 20 µM (2 of 3 replicates). With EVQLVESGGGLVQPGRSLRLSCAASGFTKDDYAMHWVRQAPGKGLEWVSGLSWNSGSIGYADVVKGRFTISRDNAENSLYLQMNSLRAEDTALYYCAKVGRGGGYFDYWGQGTLVTVSS the result was 26 µM (1 of 3 replicates). The variant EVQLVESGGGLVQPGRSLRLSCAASGFTYDENAMHWVRQAPGKGLEWVSGISWNSGSIGYADSVKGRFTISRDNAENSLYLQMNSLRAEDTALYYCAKVGRGGGYFDYWGQGTLVTVSS gave 45 µM (2 of 3 replicates).

The variant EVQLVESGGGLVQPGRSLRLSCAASGFTWDDYACHWVRQAPGKGLEWVSGISGNSGSIGYADSVKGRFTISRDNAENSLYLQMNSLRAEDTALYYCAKVGRGGGYFDYWGQGTLVTVSS showed 47 µM (1 of 3 replicates). The variant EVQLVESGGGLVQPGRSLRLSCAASGFTADEQAMHWVRQAPGKGLEWVSGISWNSGSIGYADSVKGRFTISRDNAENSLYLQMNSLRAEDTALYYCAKVGRGGGYFDYWGQGTLVTVSS showed 60 µM (3 of 3 replicates). The variant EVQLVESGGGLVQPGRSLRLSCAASGFTIDDYLMHWVRQAPGKGLEWVSGISWNSGSIGYADSVQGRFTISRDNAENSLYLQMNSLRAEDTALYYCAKVGRGGGYFDYWGQGTLVTVSS showed 84 µM (1 of 3 replicates). The variant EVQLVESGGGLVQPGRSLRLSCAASGFTNDDYAMHWVRQAPGKGLEWVSGISWNSGSIGYADSVKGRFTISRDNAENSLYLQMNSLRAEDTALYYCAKVGRGGTYFDYWGQGTLVTVSS showed 190 µM (1 of 3 replicates). The variant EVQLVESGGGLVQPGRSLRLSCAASGFTHDDYAMHWVRQAPGKGLEWVSGISWNSGSIGYADSVKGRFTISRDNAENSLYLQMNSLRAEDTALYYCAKVGRGGGYFDYWGQGTLVTVSS gave 190 µM (1 of 3 replicates). The variant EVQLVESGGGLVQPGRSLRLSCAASGFTEDDYAMHWVRQAPGKGLEWVSGIVWPSGSIGYADSVKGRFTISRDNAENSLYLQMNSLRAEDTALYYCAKVGRGGGYFDYWGQGTLVTVSS showed 320 µM (2 of 3 replicates). For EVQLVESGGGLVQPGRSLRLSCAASGFTYDDYAMHWVRQAPGKGLEWVSGISWNSGSIGYADSVKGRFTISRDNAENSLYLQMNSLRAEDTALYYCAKYGRGGMYFDYWGQGTLVTVSS, the assay gave 670 µM (2 of 3 replicates). With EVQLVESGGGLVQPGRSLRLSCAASGFTQDDYAMHWVRQAPGKGLEWVSGISWLSGSIGYADDVKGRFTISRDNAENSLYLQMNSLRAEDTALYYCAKVGRGGGYFDYWGQGTLVTVSS the result was 1.4 mM (1 of 3 replicates).

With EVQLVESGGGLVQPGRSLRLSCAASGFTNDDYAMSWVRQAPGKGLEWVSGISWNSGSIGYACSVKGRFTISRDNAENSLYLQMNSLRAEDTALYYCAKVGRGGGYFDYWGQGTLVTVSS the result was nd (0 of 3 replicates). The variant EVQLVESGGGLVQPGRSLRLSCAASGFTQDDYAMHWVRQAPGKGLEWVSGILWNSGSIKYADSVKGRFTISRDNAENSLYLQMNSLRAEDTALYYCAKVGRGGGYFDYWGQGTLVTVSS showed nd (0 of 3 replicates). For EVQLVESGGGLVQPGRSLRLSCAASGFTAEDYAMHWVRQAPGKGLEWVSGISWNSGSIGYADSVKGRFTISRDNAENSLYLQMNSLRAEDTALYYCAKVGTGGGYFDYWGQGTLVTVSS, the assay gave nd (0 of 3 replicates). With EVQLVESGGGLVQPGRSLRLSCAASGFTNDDYAMHWVRQAPGKGLEWVSGISWNRGSIGYADSYKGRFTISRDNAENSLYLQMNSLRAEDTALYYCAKVGRGGGYFDYWGQGTLVTVSS the result was nd (0 of 3 replicates). The variant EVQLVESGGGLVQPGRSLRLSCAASGFTNDDYAMHWVRQAPGKGLEWVSGISWNSGSIGYARSVKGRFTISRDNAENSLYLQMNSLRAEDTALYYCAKVGRGGGYFDPWGQGTLVTVSS gave nd (0 of 3 replicates). With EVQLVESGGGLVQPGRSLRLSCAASGFTVDDYAMHWVRQAPGKGLEWVSGISWNSGSIGYAASVKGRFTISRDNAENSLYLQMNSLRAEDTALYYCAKVDRGGGYFDYWGQGTLVTVSS the result was nd (0 of 3 replicates). With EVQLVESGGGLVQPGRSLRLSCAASGFTGDDYAMHWVRQAPGKGLEWVSGISDNSGSIGYADSVKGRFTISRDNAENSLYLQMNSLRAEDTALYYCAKVGRGGGYFDYWGQGTLVTVSS the result was nd (0 of 3 replicates). The variant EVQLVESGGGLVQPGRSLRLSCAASGFTQDDYMHHWVRQAPGKGLEWVSGISWNSGSIGYADSVKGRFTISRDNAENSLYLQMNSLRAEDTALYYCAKVGRGGGYFDYWGQGTLVTVSS showed nd (0 of 3 replicates).

The 2 strongest on average among those seen in every replicate, once more:

{"VH": "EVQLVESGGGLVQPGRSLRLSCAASGFTYDDTAMHWVRQAPGKGLEWVSGISWNSGSIGYADSVKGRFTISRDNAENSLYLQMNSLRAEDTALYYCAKVGRGGGYFDYWGQGTLVTVSS", "apparent Kd": "3.8 µM", "replicates with signal": "3/3"}
{"VH": "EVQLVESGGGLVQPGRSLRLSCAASGFTMDDNAMHWVRQAPGKGLEWVSGISWNSGSIGYADSVKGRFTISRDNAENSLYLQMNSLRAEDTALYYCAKVTRGGGYFDYWGQGTLVTVSS", "apparent Kd": "6.3 µM", "replicates with signal": "3/3"}

Background: pairings of library AAYL51 with three empty control strains gave a value in 21% of cases (median 34 µM, 5th percentile 1.8 µM). Values in that range, when seen in few replicates, are hard to tell from nonspecific mating.
In this assay the parent's reference entry averaged 72 nM; its copy inside this library read 7.5 nM.

From the AlphaSeq antibody data of Engelhart et al. 2022 (doi:10.1038/s41597-022-01779-4), copy in the FLAb collection.